# Target: recombinant human BACE-1 (Homo sapiens, UniProt P56817)
# Chains of the proteins cited; added tags and fusions are not shown. Residues count along the entry.
# UniProt P56817, 46-457 limits assumed: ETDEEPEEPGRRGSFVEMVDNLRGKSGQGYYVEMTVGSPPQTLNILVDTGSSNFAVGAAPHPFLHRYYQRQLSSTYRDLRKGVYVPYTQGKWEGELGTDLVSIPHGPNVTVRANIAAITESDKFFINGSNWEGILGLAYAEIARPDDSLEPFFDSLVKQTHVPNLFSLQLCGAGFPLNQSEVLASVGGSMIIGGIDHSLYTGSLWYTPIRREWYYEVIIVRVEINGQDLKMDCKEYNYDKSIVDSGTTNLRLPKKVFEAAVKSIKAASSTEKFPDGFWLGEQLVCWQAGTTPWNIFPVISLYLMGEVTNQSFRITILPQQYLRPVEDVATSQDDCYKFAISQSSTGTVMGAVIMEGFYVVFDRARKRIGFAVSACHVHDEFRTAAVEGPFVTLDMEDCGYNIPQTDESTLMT
# Test: BACE-1 inhibition by in vitro FRET peptide cleavage assay
# Details: human recombinant BACE-1, FRET peptide, pH 4.5, 1 h, 25° C.
# Description: The ability of compounds of the invention to inhibit BACE-1 cleavage of APP is assessed using a fluorescent resonance energy transfer (FRET) peptide cleavage assay employing the FRET peptide HiLyte 488-Glu-Val-Asn-Leu-Asp-Ala-Glu-Phe-Lys(QXL520)-OH (Anaspec, Inc., CA, USA; Cat no. 60604-01). When intact, the amino terminal fluorophore is quenched, but upon enzymatic cleavage the fluorophore is released from quencher and fluoresces (520 nm). Assays are performed in triplicate in 96 well black plates (20 mM sodium acetate, 0.1% Triton-X-100, pH 4.5; 2.2 ng peptide per well and 25 ng/well of recombinant human BACE-1 (R & D Systems Cat no. 931-AS). The appropriate controls for enzyme activity (substrate plus enzyme, and substrate only) are employed and plates are incubated (1 h, 25° C., with activity stopped with 2.5 M sodium acetate). Compounds of the invention are added in the concentration range from 100-0.0001 μg/mL. Fluorescence 480ex/520em is measured on a Polarstar plate reader (BMG LabTechnologies, UK) and data are analysed by plotting log10 concentration of compound against percent inhibition and fitting a logistic dose response sigmoidal curve using OriginPro 8 (OriginLabs, Mass, USA).
IC50 (tested form: NH4 salt) [µg/mL],IC50 (tested form: Na salt) [µg/mL],Compound
0.007,–,COc1ccc(O[C@@H]2O[C@@H](C(=O)O)[C@@H](O[C@H]3O[C@H](COS(=O)(=O)O)[C@@H](O[C@@H]4O[C@@H](C(=O)O)[C@@H](O[C@H]5O[C@H](COS(=O)(=O)O)[C@@H](O[C@@H]6O[C@@H](C(=O)O)[C@@H](O[C@H]7O[C@H](COS(=O)(=O)O)[C@@H](O[C@@H]8O[C@@H](C(=O)O)[C@@H](O[C@H]9O[C@H](COS(=O)(=O)O)[C@@H](O[C@@H]%10O[C@@H](C(=O)O)[C@@H](O[C@H]%11O[C@H](COS(=O)(=O)O)[C@@H](O)[C@H](O)[C@H]%11NC(C)=O)[C@H](O)[C@H]%10OS(=O)(=O)O)[C@H](O)[C@H]9NC(C)=O)[C@H](O)[C@H]8OS(=O)(=O)O)[C@H](O)[C@H]7NC(C)=O)[C@H](O)[C@H]6OS(=O)(=O)O)[C@H](O)[C@H]5NC(C)=O)[C@H](O)[C@H]4OS(=O)(=O)O)[C@H](O)[C@H]3NC(C)=O)[C@H](O)[C@H]2OS(=O)(=O)O)cc1
0.53,–,COc1ccc(O[C@@H]2O[C@@H](C(=O)O)[C@@H](O[C@H]3O[C@H](COS(=O)(=O)O)[C@@H](O[C@@H]4O[C@@H](C(=O)O)[C@@H](O[C@H]5O[C@H](COS(=O)(=O)O)[C@@H](O[C@@H]6O[C@@H](C(=O)O)[C@@H](O[C@H]7O[C@H](COS(=O)(=O)O)[C@@H](O[C@@H]8O[C@@H](C(=O)O)[C@@H](O[C@H]9O[C@H](COS(=O)(=O)O)[C@@H](O[C@@H]%10O[C@@H](C(=O)O)[C@@H](O[C@H]%11O[C@H](COS(=O)(=O)O)[C@@H](O)[C@H](O)[C@H]%11NC(C)=O)[C@H](O)[C@H]%10O)[C@H](O)[C@H]9NC(C)=O)[C@H](O)[C@H]8O)[C@H](O)[C@H]7NC(C)=O)[C@H](O)[C@H]6O)[C@H](O)[C@H]5NC(C)=O)[C@H](O)[C@H]4O)[C@H](O)[C@H]3NC(C)=O)[C@H](O)[C@H]2O)cc1
–,0.66,COc1ccc(O[C@@H]2O[C@H](C(=O)O)[C@@H](O[C@H]3O[C@H](COS(=O)(=O)O)[C@@H](O[C@@H]4O[C@H](C(=O)O)[C@@H](O[C@H]5O[C@H](COS(=O)(=O)O)[C@@H](O[C@@H]6O[C@H](C(=O)O)[C@@H](O[C@H]7O[C@H](COS(=O)(=O)O)[C@@H](O[C@@H]8O[C@H](C(=O)O)[C@@H](O[C@H]9O[C@H](COS(=O)(=O)O)[C@@H](O[C@@H]%10O[C@H](C(=O)O)[C@@H](O[C@H]%11O[C@H](COS(=O)(=O)O)[C@@H](O)[C@H](O)[C@H]%11NC(C)=O)[C@H](O)[C@H]%10O)[C@H](O)[C@H]9NC(C)=O)[C@H](O)[C@H]8O)[C@H](O)[C@H]7NC(C)=O)[C@H](O)[C@H]6O)[C@H](O)[C@H]5NC(C)=O)[C@H](O)[C@H]4O)[C@H](O)[C@H]3NC(C)=O)[C@H](O)[C@H]2O)cc1

# Reference: US9315587B2
